Article PMC8237303 (Heliyon, 2021)

By UniProt entry, the sequences of proteins in these tests, tags left out.
UniProt P30411, whole entry: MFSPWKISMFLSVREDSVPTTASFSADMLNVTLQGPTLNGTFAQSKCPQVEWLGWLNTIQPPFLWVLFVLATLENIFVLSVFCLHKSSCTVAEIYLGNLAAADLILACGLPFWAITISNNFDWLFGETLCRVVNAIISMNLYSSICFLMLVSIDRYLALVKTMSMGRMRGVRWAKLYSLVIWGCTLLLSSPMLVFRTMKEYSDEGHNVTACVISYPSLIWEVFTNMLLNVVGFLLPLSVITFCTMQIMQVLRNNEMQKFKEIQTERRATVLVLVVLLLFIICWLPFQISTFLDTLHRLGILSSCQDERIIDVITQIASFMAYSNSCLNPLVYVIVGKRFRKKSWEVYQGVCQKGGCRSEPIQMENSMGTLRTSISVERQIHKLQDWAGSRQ
UniProt P25929, whole entry: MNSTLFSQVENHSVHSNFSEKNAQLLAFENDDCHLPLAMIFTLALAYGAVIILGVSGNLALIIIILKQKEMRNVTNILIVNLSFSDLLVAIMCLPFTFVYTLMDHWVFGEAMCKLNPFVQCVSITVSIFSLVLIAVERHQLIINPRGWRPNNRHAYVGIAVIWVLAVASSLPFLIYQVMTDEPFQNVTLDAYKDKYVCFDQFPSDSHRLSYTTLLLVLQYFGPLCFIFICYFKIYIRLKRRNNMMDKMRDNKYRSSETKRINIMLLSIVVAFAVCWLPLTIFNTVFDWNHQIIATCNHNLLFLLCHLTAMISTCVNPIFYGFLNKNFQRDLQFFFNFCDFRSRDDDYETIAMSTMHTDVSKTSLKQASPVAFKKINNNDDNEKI

What was measured:
[1] = molecular target: Bradykinin B2 receptor (Human) (Homo sapiens, UniProt P30411); test: [3H]-Bradykinin binding assay; conditions: Human recombinant
[2] = molecular target: T1, Angiotensin AT2 receptor (Human) (Homo sapiens, UniProt P50052); test: [125I]-CGP-42112A binding assay; conditions: Human recombinant
T1 sequence (P50052 1-363): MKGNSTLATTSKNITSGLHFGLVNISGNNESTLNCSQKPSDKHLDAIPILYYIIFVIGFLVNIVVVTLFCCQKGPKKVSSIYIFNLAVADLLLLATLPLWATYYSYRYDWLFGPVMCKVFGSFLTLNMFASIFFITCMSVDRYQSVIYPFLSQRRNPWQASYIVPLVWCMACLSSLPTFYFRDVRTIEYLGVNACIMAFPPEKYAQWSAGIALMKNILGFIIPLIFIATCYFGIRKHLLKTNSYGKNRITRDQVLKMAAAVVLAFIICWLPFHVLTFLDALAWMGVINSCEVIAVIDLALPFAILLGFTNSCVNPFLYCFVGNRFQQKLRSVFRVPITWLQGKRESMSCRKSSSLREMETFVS

[3] = molecular target: Angiotensin AT1 receptor (Human) (Homo sapiens, UniProt P30556); test: [125I]-Angiotensin II; type: binding; conditions: Human recombinant
[4] = molecular target: T2, Bradykinin B1 receptor (Human) (Homo sapiens, UniProt P46663); test: [3H]-Kallidin; type: binding; conditions: Human recombinant
T2 sequence (P46663 1-353): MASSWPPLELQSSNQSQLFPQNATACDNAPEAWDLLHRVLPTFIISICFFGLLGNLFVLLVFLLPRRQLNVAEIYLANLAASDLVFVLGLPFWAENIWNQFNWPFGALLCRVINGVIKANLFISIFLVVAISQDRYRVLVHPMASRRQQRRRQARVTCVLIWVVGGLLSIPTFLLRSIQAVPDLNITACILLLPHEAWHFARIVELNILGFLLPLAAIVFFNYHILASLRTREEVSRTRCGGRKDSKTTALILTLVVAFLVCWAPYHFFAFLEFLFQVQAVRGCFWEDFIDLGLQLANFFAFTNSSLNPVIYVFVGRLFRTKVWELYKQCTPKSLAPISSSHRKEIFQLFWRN

[5] = molecular target: Neuropeptide Y1 receptor (Human) (Homo sapiens, UniProt P25929); test: [125I]-Peptide YY; type: binding; conditions: Human receptor (Non-recombinant)

HOE140
Inhibition by a positive substance (%) [1]: 94.95%

Angiotensin II human
Inhibition by a positive substance (%) [2]: 100%
Inhibition by a positive control substance (%) [3]: 100%

Lys-(des-Arg 9，Leu 8)-Bradykinin trifluoroacetate salt
Inhibition by a positive substance (%) [4]: 100%

[Leu 31, Pro 34]-Neuropeptide Y porcine
Inhibition by a positive substance (%) [5]: 99.75%
